Here are results for 61 compounds from PubChem BioAssay AID1477 (National Center for Advancing Translational Sciences (NCATS), 2009).

The chains behind the UniProt entries cited, without tags or fusion partners.
UniProt Q01196, whole entry partner: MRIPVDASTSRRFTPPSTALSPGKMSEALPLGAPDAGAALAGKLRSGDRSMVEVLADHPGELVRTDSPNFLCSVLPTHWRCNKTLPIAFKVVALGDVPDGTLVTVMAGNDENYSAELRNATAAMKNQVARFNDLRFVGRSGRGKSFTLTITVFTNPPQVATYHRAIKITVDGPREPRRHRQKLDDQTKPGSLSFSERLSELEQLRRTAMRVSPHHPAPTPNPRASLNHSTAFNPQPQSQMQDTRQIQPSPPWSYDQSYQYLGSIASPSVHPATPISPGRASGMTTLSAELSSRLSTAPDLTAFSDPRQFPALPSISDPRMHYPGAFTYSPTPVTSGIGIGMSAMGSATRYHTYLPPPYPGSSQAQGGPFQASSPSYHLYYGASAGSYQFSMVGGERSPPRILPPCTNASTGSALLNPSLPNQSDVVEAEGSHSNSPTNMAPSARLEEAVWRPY
UniProt Q13951, whole entry: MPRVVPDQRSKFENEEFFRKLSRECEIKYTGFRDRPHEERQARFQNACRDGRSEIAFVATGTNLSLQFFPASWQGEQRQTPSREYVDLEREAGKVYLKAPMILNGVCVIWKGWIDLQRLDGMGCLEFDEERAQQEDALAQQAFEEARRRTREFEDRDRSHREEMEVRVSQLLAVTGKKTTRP

Molecules are shown by their SMILES. Only a part is listed here, and it is no random draw. Results filed as inconclusive are left out. Active and inactive are the calls of the source. Calls follow the shape of the dose curve; as a rule, active = well fitted curve in the direction sought with a large enough effect; inconclusive = small, poorly fitted or top-dose-only effect, or effect the other way, or another doubt; inactive = no such curve, though single readings can be large or run the other way.

In the assay the target is Runt-related transcription factor 1 (Homo sapiens) + Core-binding factor subunit beta (Homo sapiens) (UniProt Q01196+Q13951). Put plainly: qHTS Assay for Compounds Blocking the Interaction Between CBF-beta and RUNX1 for the Treatment of Acute Myeloid Leukemia. Also: % of control where 0% means no effect. To be noted: AlphaScreen CBFb-His/RUNX1-biotin binding, biochemical; at 59.8 µM (top of the series) unless noted. For orientation: qHTS replaces the single test concentration by a dilution series.
For the compound `OCCSCCO`, the activity, negative = inhibition is inactive: 13.1%.

Turning to `COc1ccccc1OP(C)(=O)Nc1c(C)n(C)n(-c2ccccc2)c1=O` (stereo unspecified), the activity, negative = inhibition is inactive: 2.12%.

As to `COc1ccc(OP(C)(=O)Nc2ccc(Br)cc2)cc1` (stereo unspecified), the activity, negative = inhibition was inactive: 6.97%.

Take `CCN(CC)CC(O)COC(=O)C(O)(c1ccccc1)C1CCCCC1` (stereo unspecified): the activity, negative = inhibition was inactive: 3.46%.

Take `C/C1=C2N=C(/C=C3N=C(/C(C)=C4\[N-][C@@](C)([C@H]5N=C1[C@@](C)(CCC(=O)NC[C@H](C)OP(=O)([O-])O[C@@H]1[C@H](O)[C@H](n6cnc7cc(C)c(C)cc76)O[C@@H]1CO)[C@@H]5CC(N)=O)[C@](C)(CC(N)=O)[C@H]4CCC(N)=O)[C@@](C)(CC(N)=O)[C@@H]\3CCC(N)=O)C(C)(C)[C@@H]/2CCC(N)=O.[C-]#N.[Co+3]`: the activity, negative = inhibition is inactive: -15.7% [at 21.7 µM].

For the compound `CP(=O)(OC12CC3CC(CC(C3)C1)C2)OC12CC3CC(CC(C3)C1)C2`, the activity, negative = inhibition is inactive: 2.45%.

On to `CCOC(=O)c1ccc(NP(C)(=O)Oc2ccc(Cl)cc2)cc1` (stereo unspecified), for which the activity, negative = inhibition was inactive: 8.04%.

Turning to `CP(=O)(Nc1ccc(Cl)cc1Cl)Oc1ccccc1` (stereo unspecified), the activity, negative = inhibition was inactive: -19.6%.

Take `CP(=O)(OCCOc1ccccc1)OCCOc1ccccc1`: the activity, negative = inhibition is inactive: 3.47%.

For `Cc1nc2ccc3ccccc3c2o1.O=[N+]([O-])c1cc([N+](=O)[O-])c(O)c([N+](=O)[O-])c1`, the activity, negative = inhibition was inactive: -1.7%.

Take `COc1ccc(OP(C)(=O)Nc2ccccc2Br)cc1` (stereo unspecified): the activity, negative = inhibition is inactive: -0.7%.

In the case of `COc1ccccc1OP(C)(=O)Nc1ccc(C)c(C)c1` (stereo unspecified), the activity, negative = inhibition is inactive: 2.67%.

Take `Cc1cc(C)cc(OP(C)(=O)Nc2cccc(C(F)(F)F)c2)c1` (stereo unspecified): the activity, negative = inhibition was inactive: 1.59%.

For the compound `CCc1ccc(OP(C)(=O)O)cc1`, the activity, negative = inhibition is inactive: -13.1%.

On to `COc1ccccc1OP(C)(=O)Nc1ccc(C)cc1C` (stereo unspecified), for which the activity, negative = inhibition was inactive: 1.61%.

As to `CP(=O)(Nc1ccccn1)Oc1ccccc1` (stereo unspecified), the activity, negative = inhibition was inactive: 0.909%.

For the compound `Cc1c(NP(C)(=O)Oc2ccc(C(C)C)cc2)c(=O)n(-c2ccccc2)n1C` (stereo unspecified), the activity, negative = inhibition is inactive: 2.77%.

For the compound `O=[N+]([O-])c1cc([N+](=O)[O-])c(Nc2ccccn2)c([N+](=O)[O-])c1`, the activity, negative = inhibition is inactive: -11.1%.

Turning to `CN(C)CCOC(=O)C(O)(c1ccccc1)C1CCCC1` (stereo unspecified), the activity, negative = inhibition is inactive: 4.11%.

For `COc1ccc(OP(C)(=O)Nc2ccccn2)cc1` (stereo unspecified), the activity, negative = inhibition was inactive: 0.805%.

Regarding `COc1ccccc1OP(C)(=O)Nc1ccc(Br)cc1` (stereo unspecified), the activity, negative = inhibition is inactive: -4.75%.

Regarding `CCN(CC)CCCOC(=O)C(O)(c1ccccc1)c1ccccc1`, the activity, negative = inhibition is inactive: 13%.

In the case of `COc1ccc(OP(C)(=O)Nc2cccc(F)c2)cc1` (stereo unspecified), the activity, negative = inhibition is inactive: -2.57%.

In the case of `COc1ccccc1OP(C)(=O)Nc1cc(Cl)ccc1C` (stereo unspecified), the activity, negative = inhibition is inactive: -3.45%.

`Cc1cc(C)cc(OP(C)(N)=O)c1` (stereo unspecified): the activity, negative = inhibition was inactive: -17.2%.

On to `CCOC(=O)c1ccc(NP(C)(=O)Oc2ccccc2)cc1` (stereo unspecified), for which the activity, negative = inhibition was inactive: -0.764%.

Turning to `Cc1ccc(NP(C)(=O)Oc2ccccc2)c(C)c1` (stereo unspecified), the activity, negative = inhibition is inactive: 0.541%.

As for `COc1ccccc1OP(C)(=O)Nc1ccc(C)cc1` (stereo unspecified), the activity, negative = inhibition is inactive: 1.1%.

On to `Cc1cccc(C)c1OP(C)(N)=O` (stereo unspecified), for which the activity, negative = inhibition is inactive: -6.67%.

In the case of `O=C(O)C(O)(c1ccccc1)c1ccccc1`, the activity, negative = inhibition was inactive: 25.9%.

Turning to `CC(C)(C)c1ccc(OP(C)(=O)Nc2ccc(SC(F)(F)F)cc2)cc1` (stereo unspecified), the activity, negative = inhibition was inactive: 0.86%.

For `O=[N+]([O-])c1ccc2c(c1)C=Nc1ccccc1O2`, the activity, negative = inhibition was inactive: -10.6%.

For the compound `O=C(O)C1(O)c2ccccc2-c2ccccc21`, the activity, negative = inhibition was inactive: 16.6%.

For the compound `COc1ccccc1OP(C)(=O)Nc1ccccc1` (stereo unspecified), the activity, negative = inhibition is inactive: -11.6%.

`CP(=O)(Nc1ccccc1Br)Oc1ccccc1` (stereo unspecified): the activity, negative = inhibition was inactive: -15.8%.

As to `CP(=S)(Nn1cnnc1)Oc1ccccc1` (stereo unspecified), the activity, negative = inhibition is inactive: 1.65%.

In the case of `CP(=O)(Nc1ccccn1)Oc1ccc(Cl)cc1` (stereo unspecified), the activity, negative = inhibition was inactive: 5.01%.

As to `CCOP(C)(=S)SCC(=O)NC(C)C(=O)O` (stereo unspecified), the activity, negative = inhibition is inactive: 5.98%.

Take `CCOC(=O)c1ccc(NP(C)(=O)Oc2ccc(OC)cc2)cc1` (stereo unspecified): the activity, negative = inhibition is inactive: 3.59%.

For `Cc1cc(C)cc(OP(C)(=O)Nc2ccc(SC(F)(F)F)cc2)c1` (stereo unspecified), the activity, negative = inhibition is inactive: 2.91%.

`CP(=O)(NC(=O)Nc1ccccc1)Oc1ccccc1` (stereo unspecified): the activity, negative = inhibition was inactive: -3.13%.

Regarding `CCc1ccc(OP(C)(=O)N2CCN(c3ccc([N+](=O)[O-])cc3)CC2)cc1` (stereo unspecified), the activity, negative = inhibition was inactive: -9.95%.

On to `CP(=O)(Oc1ccccc1)OC(c1ccccc1)C(F)(F)F` (stereo unspecified), for which the activity, negative = inhibition was inactive: -8.25%.

For the compound `CP(=O)(Nc1ccc(SC(F)(F)F)cc1)Oc1ccc(Cl)cc1` (stereo unspecified), the activity, negative = inhibition was inactive: 3.4%.

Take `Cc1cccc(C)c1OP(C)(=O)Nc1ccc(SC(F)(F)F)cc1` (stereo unspecified): the activity, negative = inhibition is inactive: 2.03%.

Turning to `Cc1nc2ccc3ccccc3c2s1.O=[N+]([O-])c1cc([N+](=O)[O-])c(O)c([N+](=O)[O-])c1`, the activity, negative = inhibition is inactive: 4.23%.

As for `CC(C)N(CCCl)C(C)C`, the activity, negative = inhibition is inactive: 2.85%.

Take `O=[N+]([O-])c1cc([N+](=O)[O-])c(-n2nnc3ccccc32)c([N+](=O)[O-])c1`: the activity, negative = inhibition is inactive: 5.32%.

`CCCOc1ccc(NP(C)(=O)Oc2ccc(Cl)cc2)cc1` (stereo unspecified): the activity, negative = inhibition is inactive: 4.59%.

With `CP(=O)(Nc1ccc(SC(F)(F)F)cc1)Oc1ccccc1` (stereo unspecified), the activity, negative = inhibition is inactive: -0.607%.

`CN1CCCCC1COC(=O)C1(O)c2ccccc2CCc2ccccc21` (stereo unspecified): the activity, negative = inhibition was inactive: -19.9%.

Turning to `COc1ccccc1OP(C)(=O)Nc1c(C)cccc1C` (stereo unspecified), the activity, negative = inhibition is inactive: 3.68%.

With `O=[N+]([O-])c1cc([N+](=O)[O-])c(Nc2nnnn2CCO)c([N+](=O)[O-])c1`, the activity, negative = inhibition was inactive: -0.509%.

Take `Cc1ccc([N+](=O)[O-])cc1[N+](=O)[O-]`: the activity, negative = inhibition is inactive: 7.05% [at 21.7 µM].

`O=[N+]([O-])c1cccc([N+](=O)[O-])c1`: the activity, negative = inhibition is inactive: 1.33% [at 21.7 µM].

On to `Cc1cc(C)cc(OP(C)(=O)Nc2ccccn2)c1` (stereo unspecified), for which the activity, negative = inhibition was inactive: 4.28%.

As for `CP(=O)(Nc1cccc(Br)c1)Oc1ccccc1` (stereo unspecified), the activity, negative = inhibition was inactive: 1.32%.

As for `Cc1ccc(C)c(NP(C)(=O)Oc2ccccc2)c1` (stereo unspecified), the activity, negative = inhibition was inactive: 3.6%.

Turning to `Cc1cc(C)cc(OP(C)(=O)Nc2ccc(C)cc2C)c1` (stereo unspecified), the activity, negative = inhibition was inactive: -7.28%.

Regarding `CCOC(=O)c1ccc(NP(C)(=O)Oc2cc(C)cc(C)c2)cc1` (stereo unspecified), the activity, negative = inhibition is inactive: 5.83%.

For `COc1ccccc1OP(C)(=O)Nc1cccc(Br)c1` (stereo unspecified), the activity, negative = inhibition was inactive: 9.25%.
